# Tested on: rat isolated heart
# Assay: Chronotropy and inotropy in Langendorff rat isolated heart
# Details: intact preparations; 150 pMol
smiles,measurement,value
"CNCC(O)c1ccc(O)c(O)c1.O=C(O)C(O)C(O)C(=O)O (stereo not shown) [adrenaline, Adrenaline bitartrate, reference compound]",maximal attainable beating rate,349±8 bpm
